Literature values in US20030158213A1, “Xanthine oxidase inhibition as a strategy to alleviate oxidative impairment of vascular function” (priority 2001, published 2003).

What was measured:
[1] = molecular target: T1, nitric oxide synthase (Homo sapiens, UniProt P29474); conditions: infusion into the brachial artery; cited from earlier work
T1 construct: host or cells: human coronary and forearm vasculature, in vivo infusion of L-NMMA

[2] = molecular target: T1, nitric oxide synthase; conditions: intracoronary infusion; patients without atherosclerosis or its risk factors; cited from earlier work

Structure (SMILES): CNC(=N)NCCC[C@H](N)C(=O)O [L-NMMA, N^G-monomethyl-L-arginine]
- forearm blood flow [1]: significantly reduced forearm blood flow
- coronary epicardial tone and coronary blood flow [2]: caused coronary epicardial constriction and reduced coronary blood flow
